Reference: US20260262641A1 (priority 2023, published 2026)

Tested on: insecticide-resistant population of redlegged earth mite (H. destructor; RLEM)
Settings: P < 0.05 level

Cc1nn(C)c(Oc2ccccc2)c1C=NOCc1ccc(C(=O)OC(C)(C)C)cc1 [Fenpyroximate]
difference between insecticide-susceptible and resistant populations in response (in words): no significant differences
